Data taken from publication PMC9319256, “Human Enzyme PADI4 Binds to the Nuclear Carrier Importin α3” (Cells, 2022).
“Also recorded” adds a separate entry of the source.

Legend:
[1] = target: ΔImpα3; assay: Biolayer interferometry (BLI), ΔImpα3; assay type: binding, human; conditions: peptide 1–7 µM, 25 °C; for Kd: His-tagged ΔImpα3 (0.3 µM) immobilized on His-tag biosensors, buffer recommended by manufacturer; for kon: pseudo-first-order plot; for kon / koff: ΔImpα3 immobilized
Experimental: The association (kon) and dissociation (koff) rate constants of the binding of NLS1/2-PADI4 peptides to Impα3 or ΔImpα3 were determined using a BLItz system (ForteBio, Pall, Barcelona, Spain). The buffer used in the experiments was that recommended by the manufacturer. […] The peptide concentrations were in the range from 1 to 7 µM during the association step. The general scheme of the protein association/dissociation reactions in the BLItz system for NLS1/2-PADI4 with Impα3 and ΔImpα3 immobilized on the biosensor was similar to that described previously.
Fittings of the sensorgrams was carried out using KaleidaGraph (Synergy software, Reading, PA, USA). The interferometry response during the association step, R(t) (measured in response units, RU), and the binding rate, dR(t)/dt, can be used to evaluate the kinetics of the formation of the Impα3/ΔImpα3–NLS1/2-PADI4 complex, according to (3) dR/dt=kon[NLS1/2PADI4](Rmax−R(t))−koffR(t), where Rmax is proportional to the total concentration of biosensor-bound importin species, and [NLS1/2PADI4] represents the concentration of the corresponding NLS1/2-PADI4 peptide.
In Equation (3), R(t) is given by (4) R(t)=Req−Reqe^(−kobs (t−t0)), where Req is the steady-state (or equilibrium) response obtained at infinite time, when dR(t)/dt = 0, and t0 = 180 s is the time at which the association step between biosensor-immobilized Impα3/ΔImpα3 and NLS1/2-PADI4 in the solution started. We fitted the experimentally obtained R(t) under any condition as (5) R(t)=Req−Reqe^(−kobs (t−t0))−Req′e^(−kobs2′ (t−t0)), since an F statistical analysis test of the kinetic constants obtained with a fitting to Equations (4) or (5) was always better in the latter, two-exponential case (at 95% confidence level). With Equation (5), we are assuming that the equilibrium response at infinite time (that is, Req) is reached with the fastest exponential.
The kinetic rate from the second exponential (with a total amplitude smaller than 5%, in all cases, and slower than the other phase) in Equation (5) remained constant at all the peptide concentrations explored.
The dissociation process was always fitted to a single exponential, with R(t) given by (7) R(t)=R1 e^(−koff(t−t0)), where t0 = 300 is the time at which the dissociation of the peptide from the biosensor-bound Impα3/ΔImpα3 started in our experimental setup, and R1 is the response level when dissociation starts.

[2] = Translational diffusion NMR (DOSY); assay type: physicochemical; conditions: for hydrodynamic radius Rh: comparison with D of dioxane; for hydrodynamic radius Rh / translational diffusion coefficient D: single exponential; for translational diffusion coefficient D: methyl groups, 100 mM sodium phosphate pH 7.0, 10 °C, 1% dioxane; for translational diffusion coefficient D / oligomerization state / self-association: 100 µM peptide
Experimental: The NMR spectra were acquired at 10 °C on a Bruker Avance 500 MHz spectrometer (Bruker GmbH, Karlsruhe, Germany), equipped with a triple resonance probe and z-pulse field gradients. Spectra were processed with Bruker TopSpin 2.1 (Bruker GmbH, Karlsruhe, Germany). All NMR experiments with NLS1/2-PADI4 peptides were carried out in 100 mM sodium phosphate buffer (not corrected for isotope effects), pH 7.0. Spectra were calibrated with TSP, by considering pH-dependent changes of its chemical shifts; probe temperature was calibrated with pure methanol.
The NLS1/2-PADI4 concentration in DOSY experiments was 100 µM, and 128 scans were acquired, where the gradient strength was varied linearly. Details on the experimental conditions and fitting of the resulting curves have been described elsewhere. A final concentration of 1% of dioxane, with an assumed hydrodynamic radius, Rh, of 2.12 Å [54], was added to the solution.

[3] = Size exclusion chromatography (SEC); assay type: physicochemical; conditions: for SEC elution volume: Superdex 75 10/30 HR, Tris 20 mM pH 7.6, 250 mM NaCl, 1 mL/min, 280 nm, NLS1 50–400 µM, NLS2 200–400 µM; for Stokes radius: from SEC elution volume, weight-average partition coefficients
Experimental: Size exclusion chromatography experiments were carried out as described on an AKTA FPLC using a calibrated analytical Superdex 75 10/30 HR FPLC column (GE Healthcare, Barcelona, Spain) with both peptides in the following concentration ranges: 50–400 µM of protomer concentration for NLS1-PADI4 and 200–400 µM for NLS2-PADI4 peptide. The elution volumes were obtained from analyses with UNICORN software (GE Healthcare, Barcelona, Spain) from three different measurements. The void volume (7.54 ± 0.06 mL) was determined from blue dextran, and the bed volume (18.98 ± 0.03 mL) was determined from conductivity measurements in a Tris elution buffer (20 mM, pH 7.6, and 250 mM NaCl). Samples were eluted at a rate of 1 mL/min and continuously monitored with an online detector at a wavelength of 280 nm. Analyses were carried out as described. The column was calibrated with the standard set of low-molecular-weight (GE Healthcare, Barcelona, Spain) globular proteins; as a comparison, ribonuclease A, with a molecular weight of 13.7 kDa, eluted at 13.3 mL in such a column.

[4] = DOSY, two-exponential fitting, 100 µM, pH 7.0, 10 °C

Row | SMILES | Kd [1] [µM] | kon [1] [M⁻¹ s⁻¹] | koff [1] [s⁻¹] | hydrodynamic radius Rh ([2]; DOSY, 100 µM, pH 7.0, 10 °C) [Å] | translational diffusion coefficient D ([2]; DOSY) | D, self-associated species [2, 4] | Rh, self-associated species [2, 4] [Å] | oligomerization state / self-association ([2]; DOSY, pH 7.0, 10 °C) | estimated molecular weight of species in solution ([2]; from Rh = 0.027 MW^1/2, self-associated species) | SEC elution volume [3] [mL] | Stokes radius [3] [Å]
1 | CSCC[C@H](NC(=O)[C@@H](NC(=O)[C@H](CC(C)C)NC(=O)[C@@H](NC(=O)[C@@H](NC(=O)[C@H](CCC(=O)O)NC(=O)[C@@H](NC(=O)CNC(=O)[C@@H]1CCCN1C(=O)[C@H](CC(=O)O)NC(=O)[C@H](CC(C)C)NC(=O)[C@@H]1CCCN1C(=O)[C@H](Cc1c[nH]c2ccccc12)NC(=O)[C@@H](NC(=O)[C@H](CO)NC(=O)[C@H](CO)NC(=O)CNC(=O)[C@@H](NC(=O)[C@H](CO)NC(=O)[C@H](CCCCN)NC(=O)[C@H](CCCCN)NC(=O)[C@H](CCCCN)NC(=O)[C@H](C)NC(C)=O)[C@@H](C)O)[C@@H](C)O)C(C)C)C(C)C)[C@@H](C)O)[C@@H](C)O)C(=O)N[C@@H](CCCCN)C(=O)N[C@H](C(=O)N[C@@H](C)C(=O)N[C@@H](CO)C(N)=O)C(C)C [NLS1-PADI4] | 4 ± 1 | 11000 ± 2000 | 0.046 ± 0.005 | 17 ± 2 | 8.8 ± 0.8 × 10^−7 cm^2·s^−1 | 4 ± 1 × 10^−7 cm^2·s^−1 | 34 ± 6 | hexameric species; also recorded: had a tendency to self-associate at physiological pH | 16,421.9 Da | 14.82 | 10.7
2 | CC[C@H](C)[C@H](NC(=O)[C@H](CCCCN)NC(=O)[C@H](CCC(N)=O)NC(=O)[C@H](CCC(N)=O)NC(=O)[C@H](CCCCN)NC(=O)[C@H](CCCCN)NC(=O)[C@H](CCCCN)NC(=O)[C@H](CCCCN)NC(=O)[C@@H](NC(=O)CNC(=O)[C@H](CCC(=O)O)NC(=O)[C@H](Cc1ccccc1)NC(=O)[C@H](CC(C)C)NC(=O)[C@H](CC(C)C)NC(=O)[C@H](C)NC(=O)[C@H](CCC(=O)O)NC(=O)CNC(=O)[C@H](Cc1c[nH]cn1)NC(=O)CNC(=O)[C@H](CCC(=O)O)NC(=O)[C@H](CC(N)=O)NC(=O)[C@H](CCC(N)=O)NC(=O)[C@H](CCC(N)=O)NC(=O)[C@H](CCC(=O)O)NC(=O)[C@H](CCC(N)=O)NC(=O)[C@H](Cc1ccccc1)NC(=O)[C@H](CC(C)C)NC(=O)[C@H](CCCCN)NC(=O)[C@H](Cc1ccc(O)cc1)NC(C)=O)[C@@H](C)CC)C(N)=O [NLS2-PADI4] | 12 ± 4 | 20000 ± 3000 | 0.23 ± 0.01 | 15.1 ± 0.8 | 9.6 ± 0.3 × 10^−7 cm^2·s^−1 |  |  | monomeric |  | 15.15 | 9.64
